{"source": "patent US7294687B2", "about": "“Parenteral formulations of a peptide for the treatment of systemic lupus erythematosus” (TEVA Pharmaceutical Industries, Ltd., priority 2003, dated 2007)", "origin": "cited, not measured here", "conditions": "parenteral; cited from earlier work", "data": [{"substance": "hepta-substituted sulfobutylether β-cyclodextrin [CAPTISOL®]", "values": [{"measurement": "safety when administered parenterally", "result": "safe"}]}]}
